Measured values reported in patent US7550499B2, “Urea antagonists of P2Y1 receptor useful in the treatment of thrombotic conditions” (Bristol-Myers Squibb Company, priority 2004, dated 2009).
pKd: −log10 of the molar value.

Sequences of proteins named here, by UniProt entry; tags and fusion partners are left off. A change or cut given only in a name is not applied to a line headed by its entry.
UniProt P47900: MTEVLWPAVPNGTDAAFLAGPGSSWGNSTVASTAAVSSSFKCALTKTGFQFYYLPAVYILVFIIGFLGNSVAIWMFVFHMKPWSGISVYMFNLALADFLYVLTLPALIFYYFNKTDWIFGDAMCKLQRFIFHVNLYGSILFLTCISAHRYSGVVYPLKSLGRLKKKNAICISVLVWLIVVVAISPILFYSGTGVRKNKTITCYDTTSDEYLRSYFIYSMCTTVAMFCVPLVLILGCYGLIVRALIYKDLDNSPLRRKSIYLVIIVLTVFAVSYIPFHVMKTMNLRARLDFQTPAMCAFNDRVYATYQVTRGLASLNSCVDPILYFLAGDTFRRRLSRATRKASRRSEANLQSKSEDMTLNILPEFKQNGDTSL

Target: T1, cloned human P2Y1 receptors (Homo sapiens, UniProt P47900)
T1 construct: expressed in transfected cells
Experiment: P2Y1 membrane binding assay (inhibition of [^33P] 2MeS-ADP binding)
Details: value used in the Cheng-Prusoff relationship; read-out: Kd for 2MeS-ADP to the P2Y1 receptor
Source text: A membrane binding assay was used to identify inhibitors of [^33P] […] The cDNA clone for human P2Y1 was obtained from Incyte Pharmaceuticals and its sequence confirmed by established techniques (for a compendium of techniques used see Ausubel, F. et al. Current Protocols in Molecular Biology 1995 John Wiley and Sons, NY, N.Y.). The essential coding sequences were subcloned into pCDNA 3.1 (Invitrogen) to produce a P2Y1 expression construct. This construct was then transfected into the human embryonic kidney cell line HEK-293 and stable transfectants selected in Genetcin® (G418 sulfate; Life Technologies). […] Membranes were prepared by growing HEK293 #49 in 150 mm dishes in DMEM/10% FBS in the presence of 1 mg/ml G418 until cells were 80-90% confluent. Plates were then washed with cold (4° C.) D-PBS twice and cells harvested by scraping into 10 mL D-PBS. Cells were pelleted by centrifugation (1,000 g, 10 min, 4° C.) and the resulting pellet resuspended in Lysis Buffer (10 mM Tris (7.4), 5 mM MgCl2 containing Complete® protease inhibitor cocktail (Roche Cat #1873580) as recommended by the manufacturer). […]
Reactions were allowed to proceed to completion at room temperature for 1 hour and then the aqueous solution aspirated. Plates were sealed and the residual [^33P] bound to the plate determined by scintillation counting.

CSc1nc(N)c2ncn([C@@H]3O[C@H](COP(=O)(O)OP(=O)(O)O)[C@@H](O)[C@H]3O)c2n1 [Example 2MeS-ADP, 2 methylthio adenosine diphosphate]
pKd: 8.85
